RAD54 branch: inhibitors of human RAD54 branch migration, primary screen, biochemical, fluorescence, single point; RAD54 Holliday junction branch migration, FAM/BHQ fluorescence; inhibition, % at 10.4 µM; DNA repair and recombination protein RAD54-like (Homo sapiens), Q92698; hit rate 0.14% among 360,000;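 active = mean normalized replicate activity at least 40 and at least half of replicates scoring 40 or more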;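 also: 0% = median of neutral control wells and 100% = median of positive control wells; inhibitors cause a drop in the FAM fluorescence signal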
RAD52 inh: RAD52 DNA annealing inhibitors, primary screen, biochemical, FRET, single point, set 2; AID 651710, 2012; recombinant RAD52 DNA annealing, FRET fluorescence; hit rate 0.46% among 360,000; inhibition, % at 18.7 µM;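 active = every replicate showing at least 50% inhibition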
SIRT5 block: SIRT5 desuccinylase inhibitors, primary screen, biochemical, fluorescence imaging, single point, set 5 | NAD-dependent protein deacylase sirtuin-5, mitochondrial (Homo sapiens), Q9NXA8 | Purified SirT5, succinyl-peptide AMC, trypsin-coupled fluorescence | inhibition, % at 15 µM | hit rate 1.1% among 330,000; in the data active = inhibition above about 15%
E-selectin induc: E-selectin induction in HUVECs, primary screen, imaging, HUVEC, immunofluorescence imaging, single point; P16581; hit rate 0.37% among 260,000; normalized: neutral wells 0, TNF-alpha wells 100; activation, % at 7.58 µM;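 active = mean E-selectin-positive cell signal at least 10% of the positive control, reached in at least 60% of replicates, without over 20% cell loss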
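System: HUVEC / Compound: single concentration / Signal: immunofluorescence imaging / Read-out: percent E-selectin-positive cells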
UUG fidelity: alters start codon recognition fidelity in yeast. S. cerevisiae UUG-firefly luciferase reporter, luminescence/redox ratio. 350,000 tested, 0.13% active. activity score, % at 18.7 µM. AID 602363;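 active means replicate mean at a twofold rise or more, about +100% in these data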;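 further: firefly luciferase made from a UUG start codon reports start codon fidelity; reporter light over untreated wells divided by growth signal over untreated wells; some hits fall short of that in this replicate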
AF4-AF9 inh: inhibitors of AF4 peptide binding to AF9, primary screen, biochemical, AlphaScreen, biotin-AF4 peptide, FLAG-AF9, single point. AID 651704, 2012. hit rate 0.47% among 350,000. inhibition, % at 10 µM;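 active = every replicate reaching a set inhibition limit, whatever the replicate mean, cut at about 25% in these data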;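 also: 0% = plate neutral control median and 100% = total signal loss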
* marks the source's active call; other numbers are inactive results. In the library only some 1.8% were active in any assay of this set; here they are far more common.

Screening Cc1ccccc1Nc1ccc2nonc2c1[N+](=O)[O-] returned RAD54 branch -5, RAD52 inh -16, SIRT5 block 29*, UUG fidelity -13 and AF4-AF9 inh 1.
Screening Cc1ccc(S(=O)(=O)Nc2ccc3c(c2)C(=O)N([C@@H](C)CO)C[C@H](C)[C@H](CN(C)CC2CCCCC2)O3)cc1 returned RAD54 branch 4, RAD52 inh 3, SIRT5 block -3, E-selectin induc 0, UUG fidelity 3 and AF4-AF9 inh -4.
For CSc1ccccc1OCc1cc(C(=O)NCCN2CCCC(O)C2)no1 (stereo not given) the results were RAD54 branch -2, RAD52 inh -4, SIRT5 block -1, E-selectin induc 0, UUG fidelity -5 and AF4-AF9 inh 1.
For CSc1ccccc1OCc1cc(C(=O)N(C)C2CCCc3ccccc32)no1 (stereo not given) the results were RAD54 branch -10, RAD52 inh -12, SIRT5 block 20*, UUG fidelity -13 and AF4-AF9 inh 1.
Screening C[C@@H]1CN([C@@H](C)CO)C(=O)c2cc(NC(=O)CCCCCC(=O)Nc3ccccc3N)ccc2O[C@H]1CN(C)Cc1ccccc1 returned RAD52 inh 6, SIRT5 block 21*, E-selectin induc 0 and AF4-AF9 inh -15.
For C[C@@H]1CN([C@H](C)CO)C(=O)Cc2cc(NC(=O)CCCCCC(=O)Nc3ccccc3N)ccc2O[C@H]1CN(C)Cc1ccc(Oc2ccccc2)cc1 the results were RAD54 branch 1, RAD52 inh 28, SIRT5 block 15*, E-selectin induc 12, UUG fidelity -5 and AF4-AF9 inh -1.
Screening C[C@H](CO)N1C[C@H](C)[C@@H](CN(C)Cc2ccc(Oc3ccccc3)cc2)Oc2c(NC(=O)CCCCCC(=O)Nc3ccccc3N)cccc2C1=O returned RAD52 inh 19, SIRT5 block 22*, E-selectin induc -3 and AF4-AF9 inh 4.
`C[C@H](CO)N1C[C@H](C)[C@H](CN(C)Cc2ccc(-c3ccccc3)cc2)Oc2ccc(NC(=O)CCCCCC(=O)Nc3ccccc3N)cc2C1=O` gave RAD52 inh 34, SIRT5 block 23*, E-selectin induc 18 and AF4-AF9 inh -2.
C[C@@H]1CN([C@@H](C)CO)C(=O)c2cccc(NC(=O)CCCCCC(=O)Nc3ccccc3N)c2O[C@H]1CN(C)Cc1ccc(Oc2ccccc2)cc1 was read as E-selectin induc 2.
`CNC[C@@H]1OCCCC[C@H](C)Oc2ccc(NS(=O)(=O)c3ccc(OC)cc3)cc2C(=O)N([C@H](C)CO)C[C@@H]1C` gave E-selectin induc 1.
For CO[C@@H]1CN(C)C(=O)c2cc(NS(C)(=O)=O)ccc2OC[C@H](C)N(Cc2ccccn2)C[C@H]1C the results were E-selectin induc 0.
For CCCNC(=O)Nc1ccc2c(c1)C(=O)N(C)C[C@H](OC)[C@@H](C)CN(Cc1ccc(-c3ccccn3)cc1)[C@@H](C)CO2 the results were E-selectin induc 0.
For C[C@@H]1CN([C@@H](C)CO)C(=O)c2cc(NC(=O)Nc3ccc(F)cc3)ccc2O[C@H]1CN(C)C the results were RAD54 branch 11, RAD52 inh 17, SIRT5 block 0, E-selectin induc -3, UUG fidelity 7 and AF4-AF9 inh -1.
`C[C@H]1CN([C@@H](C)CO)C(=O)c2cc(NC(=O)CCCCCC(=O)Nc3ccccc3N)ccc2O[C@H]1CN(C)Cc1ccc(Oc2ccccc2)cc1` gave RAD52 inh -26, SIRT5 block 17*, E-selectin induc 0 and AF4-AF9 inh 6.
Screening Nc1[nH]c(C(=O)c2ccccc2)c(-c2ccc(Cl)c(Cl)c2)c1C(=O)NCCc1c[nH]c2ccccc12 returned RAD52 inh -13, SIRT5 block -1 and E-selectin induc 0.
`Nc1[nH]c(C(=O)c2ccccc2)c(-c2ccc(Cl)c(F)c2)c1C(=O)NCCc1c[nH]c2ccccc12` gave RAD52 inh 5, SIRT5 block 39*, E-selectin induc 1 and AF4-AF9 inh -2.
Screening C[C@H](CO)N1C[C@H](C)[C@H](CN(C)C(=O)Nc2ccccc2)Oc2ccc(NC(=O)Nc3ccc(C(F)(F)F)cc3)cc2C1=O returned RAD54 branch 1, RAD52 inh 4, SIRT5 block 3, E-selectin induc -1, UUG fidelity -2 and AF4-AF9 inh 0.
C[C@@H]1CN([C@@H](C)CO)C(=O)c2cc(NC(=O)Nc3ccccc3)ccc2O[C@@H]1CN(C)C(=O)Nc1ccc(C(F)(F)F)cc1 was read as RAD54 branch 4, RAD52 inh 6, SIRT5 block 11, E-selectin induc 51*, UUG fidelity -3 and AF4-AF9 inh 1.
`COc1ccc(NC(=O)Nc2ccc3c(c2)C(=O)N([C@@H](C)CO)C[C@@H](C)[C@@H](CN(C)C(=O)Nc2ccc(C(F)(F)F)cc2)O3)cc1` gave RAD54 branch 7, RAD52 inh 2, SIRT5 block 16*, E-selectin induc -2, UUG fidelity -6 and AF4-AF9 inh -7.
`COc1ccc(NC(=O)Nc2ccc3c(c2)C(=O)N([C@H](C)CO)C[C@H](C)[C@@H](CN(C)Cc2ccc(C(F)(F)F)cc2)O3)cc1` gave RAD54 branch -6, RAD52 inh 18, SIRT5 block 19*, E-selectin induc 0, UUG fidelity 18 and AF4-AF9 inh -7.
For C[C@@H]1CN([C@H](C)CO)C(=O)c2cc(NC(=O)Nc3ccccc3)ccc2O[C@@H]1CN(C)C(=O)Nc1ccc(C(F)(F)F)cc1 the results were RAD54 branch -7, RAD52 inh -1, SIRT5 block 4, E-selectin induc 0, UUG fidelity -4 and AF4-AF9 inh 2.
For C[C@H]1CN([C@@H](C)CO)C(=O)c2cc(NC(=O)Nc3ccccc3)ccc2O[C@@H]1CN(C)C(=O)Nc1ccc(C(F)(F)F)cc1 the results were RAD54 branch -3, RAD52 inh 11, SIRT5 block 6, E-selectin induc 40*, UUG fidelity 9 and AF4-AF9 inh 0.
For C[C@H](CO)N1C[C@H](C)[C@@H](CN(C)C(=O)Cc2ccccc2)OCCCC[C@H](C)Oc2ccc(NC(=O)Cc3ccccc3)cc2C1=O the results were RAD54 branch -1, RAD52 inh -2, SIRT5 block 3, E-selectin induc 0, UUG fidelity 0 and AF4-AF9 inh 2.

3 successive records out of the list so far, quoted:
For CO[C@@H]1CN(C)C(=O)c2cc(NS(C)(=O)=O)ccc2OC[C@H](C)N(Cc2ccccn2)C[C@H]1C the results were E-selectin induc 0.
For CCCNC(=O)Nc1ccc2c(c1)C(=O)N(C)C[C@H](OC)[C@@H](C)CN(Cc1ccc(-c3ccccn3)cc1)[C@@H](C)CO2 the results were E-selectin induc 0.
For C[C@@H]1CN([C@@H](C)CO)C(=O)c2cc(NC(=O)Nc3ccc(F)cc3)ccc2O[C@H]1CN(C)C the results were RAD54 branch 11, RAD52 inh 17, SIRT5 block 0, E-selectin induc -3, UUG fidelity 7 and AF4-AF9 inh -1.

Bioassay records: PubChem BioAssay, Broad Institute
